Here are results for one molecule from patent publication US10465009B2, “BCMA antigen binding proteins” (Amgen Inc., priority 2012, dated 2019).

Common to all, as to format: cell-based, human
The test system of assay [1] is MM1R multiple myeloma cell line. Kind of assay: Internalization assay in MM1R cells. Conditions: post incubation initiation. Here is the method:
H929 myeloma tumor cells were cultured in growth medium (RPMI 1640, 10% FBS, MEM non-essential Amino Acids, HEPES, beta-mercaptoethanol, Pen/Strep, L-glutamine, sodium pyruvate, gentamicin). The H929 cells were collected into two 3-ml FACS tubes at approximately 500,000 cells per tube and washed once with assay medium (PBS containing 2% FBS). […] After incubation at 4° C. for 30 minutes, the cells were washed once with assay medium. A cocktail of anti-human IgG, Alexa 488 (Molecular Probes Inc., Eugene, Oreg. Catalog# A11013 at a 1:1,000 dilution in assay medium) and Hoechst 33342 (Molecular Probes Inc., Eugene, Oreg. Catalog# H21492 at a 1:2000 dilution in assay medium) was added to the cells. […] The internalization rate was quantified on an ArrayScan V^TI HCS reader (version 6, Cellomics, Thermo Fisher Scientific, Pittsburgh, Pa.) with BioApplication “Spot Detector” algorithm employing a 40× objective. At least 200 cells were counted in each well.
The output parameter algorithm of ArrayScan was “SpotCountPerObjectCh2.” The results were reported as total spot count per 200 cells. […] The spot counts were expressed as the mean±standard error of the mean (SEM) for duplicate measurements (n=2). […] The half-life for internalization was calculated using one-phase exponential association from GraphPad™ Prism.

The test system of assay [2] is primary myeloma bone marrow mononuclear tumor cells (BMMC). Briefly: Flow cytometry DM1 delivery assay (anti-DM1 antibody), primary myeloma BMMC. Conditions: patient BMMC samples. The source says: The human myeloma tumor cell line MM1R, which expresses a relatively low level of BCMA, was used as a relative positive control to assess whether sufficient DM1 was delivered into the cell by 2A1CV5-MCC-DM1 to induce cell death.
On the technique in general: Flow cytometry measures light scatter and fluorescence of single cells or particles in a stream.

Assay [3] deals with H929 cells. Kind of assay: CellTiter-Glo Luminescent Cell Viability Assay, H929. As for the experimental part:
The ADCs were tested for the ability to target and kill BCMA-expressing myeloma cells. The CellTiter-Glo® Luminescent Cell Viability Assay is a homogeneous method to determine the number of viable cells in culture based on quantitation of the ATP present, which signals the presence of metabolically active cells. The CellTiter-Glo® Assay is applicable to cytotoxicity assays (see http://www.promega.com/products/cell-health-assays/cell-viability-assays/celltiterglo-luminescent-cell-viability-assay/ for more information). The cell viability assay was used to assess the relative killing capacity of various ADCs on various multiple myeloma cell lines and B-cell lines. The protocol provided in the Cell Titer-Glo kit (Promega G7572) was followed. In short, 5×10^3 target cells in 90 ul RPMI 1640, 10% FBS were aliquoted into clear, flat bottom, white walled 96 well plates (Costar #3903). The ADCs were diluted into a 10× stock to create 500 nM maytansine drug equivalents. Each ADC was serially diluted in 2-fold dilutions in RPMI 1640, 10% FBS starting with 500 nM stock. 10 ul of the 10×ADC dilution series was added to the 90 ul of cells in media (triplicate wells). […] Luminescence was read on an EnVision™ Multilabel reader (PerkinElmer) or Analyst HT plate reader (LJL Biosciences). The data was analyzed and graphed using GraphPad Prism™ to determine the relative efficacy of the ADCs on various cancer cell lines.
The 2A1CV5-MCC-DM1, 32B5-MCC-DM1 and 29C12-MCC-DM1 ADCs were tested for the ability to target and kill BCMA-expressing myeloma cells (H929). The CellTiter-Glo® Luminescent Cell Viability Assay is a homogeneous method to determine the number of viable cells in culture based on quantitation of the ATP present, which signals the presence of metabolically active cells. […] Luminescence was read on an EnVision™ Multilabel reader (PerkinElmer) or Analyst HT plate reader (LJL Biosciences). The data was analyzed and graphed using GraphPad Prism™ to determine the relative efficacy of the ADCs on various cancer cell lines.
Background: In ATP-based viability assays light output follows the ATP content of the culture.

B1: 2A1CV5-MCC-DM1 (conjugate)
heavy: EVQLVESGGGLVKPGGSLRLSCAASGFTFGDYALSWFRQAPGKGLEWVGVSRSKAYGGTTDYAASVKGRFTISRDDSKSTAYLQMNSLKTEDTAVYYCASSGYSSGWTPFDYWGQGTLVTVSSASTKGPSVFPLAPSSKSTSGGTAALGCLVKDYFPEPVTVSWNSGALTSGVHTFPAVLQSSGLYSLSSVVTVPSSSLGTQTYICNVNHKPSNTKVDKKV[omitted - human IgG1 Fc]
light: QSVLTQPPSASGTPGQRVTISCSGSSSNIGSNTVNWYQQLPGTAPKLLIFNYHQRPSGVPDRFSGSKSGSSASLAISGLQSEDEADYYCAAWDDSLNGWVFGGGTKLTVLGQPKAAPSVTLFPPSSEELQANKATLVCLISDFYPGAVTVAWKADSSPVKAGVETTTPSKQSNNKYAASSYLSLTPEQWKSHRSYSCQVTHEGSTVEKTVAPTECS
For the molecule B1, the “time to half maximal levels of internalization” value in assay [1] is given as “about 50 minutes”. Moreover, the “delivery of DM1 into primary myeloma tumor cells” value in assay [2] is on record as “delivered varying levels of DM1 into all 13 patient samples”. The “killing of huBCMA-expressing myeloma cells (H929)” value in assay [3] (CellTiter-Glo) was “able to target and kill BCMA-expressing myeloma cells (H929)”. Also, in assay [3] (H929), the “Cell line killed by BCMA ADC” value is on record as “Yes”. Also, the “increase in potency over 32B5-MCC-DM1 and 29C12-MCC-DM1” value in assay [3] (H929 cells) is listed as 2-3 fold.
